Measured values published in paper PMC5645250 (Cancer research, 2017).

By UniProt entry, the sequences of proteins in these tests, tags left out.
UniProt P03372, whole entry Y537S: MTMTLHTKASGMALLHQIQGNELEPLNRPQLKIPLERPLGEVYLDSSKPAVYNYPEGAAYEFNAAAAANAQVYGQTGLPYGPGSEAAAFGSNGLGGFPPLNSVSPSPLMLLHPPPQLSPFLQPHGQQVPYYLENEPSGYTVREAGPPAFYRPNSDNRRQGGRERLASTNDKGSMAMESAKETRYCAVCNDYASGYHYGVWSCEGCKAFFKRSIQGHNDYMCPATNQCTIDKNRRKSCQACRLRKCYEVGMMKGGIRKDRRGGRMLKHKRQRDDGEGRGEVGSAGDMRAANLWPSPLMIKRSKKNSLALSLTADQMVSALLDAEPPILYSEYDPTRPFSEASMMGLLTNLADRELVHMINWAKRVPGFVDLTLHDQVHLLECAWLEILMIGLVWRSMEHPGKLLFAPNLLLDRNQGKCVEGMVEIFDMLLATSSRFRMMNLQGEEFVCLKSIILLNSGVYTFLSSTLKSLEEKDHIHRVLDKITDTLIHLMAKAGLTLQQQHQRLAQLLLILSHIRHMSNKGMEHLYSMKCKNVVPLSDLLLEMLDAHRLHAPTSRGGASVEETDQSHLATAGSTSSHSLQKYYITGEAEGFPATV
UniProt P03372, whole entry: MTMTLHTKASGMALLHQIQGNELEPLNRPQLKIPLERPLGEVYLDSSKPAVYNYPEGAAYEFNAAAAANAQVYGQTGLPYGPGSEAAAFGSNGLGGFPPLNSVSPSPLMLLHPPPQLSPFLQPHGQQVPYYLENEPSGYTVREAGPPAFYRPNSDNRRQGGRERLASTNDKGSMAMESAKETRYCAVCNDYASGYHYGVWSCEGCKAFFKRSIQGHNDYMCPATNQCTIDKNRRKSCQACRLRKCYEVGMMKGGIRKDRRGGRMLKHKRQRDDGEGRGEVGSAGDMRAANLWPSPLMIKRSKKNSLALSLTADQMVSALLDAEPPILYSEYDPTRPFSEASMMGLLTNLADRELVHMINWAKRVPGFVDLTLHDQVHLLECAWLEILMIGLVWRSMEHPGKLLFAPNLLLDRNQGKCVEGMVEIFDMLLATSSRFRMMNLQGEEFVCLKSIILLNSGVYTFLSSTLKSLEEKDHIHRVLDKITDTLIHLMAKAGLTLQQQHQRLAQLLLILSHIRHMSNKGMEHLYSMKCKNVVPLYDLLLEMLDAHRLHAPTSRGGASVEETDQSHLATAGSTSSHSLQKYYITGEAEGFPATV
UniProt P03372, whole entry D538G: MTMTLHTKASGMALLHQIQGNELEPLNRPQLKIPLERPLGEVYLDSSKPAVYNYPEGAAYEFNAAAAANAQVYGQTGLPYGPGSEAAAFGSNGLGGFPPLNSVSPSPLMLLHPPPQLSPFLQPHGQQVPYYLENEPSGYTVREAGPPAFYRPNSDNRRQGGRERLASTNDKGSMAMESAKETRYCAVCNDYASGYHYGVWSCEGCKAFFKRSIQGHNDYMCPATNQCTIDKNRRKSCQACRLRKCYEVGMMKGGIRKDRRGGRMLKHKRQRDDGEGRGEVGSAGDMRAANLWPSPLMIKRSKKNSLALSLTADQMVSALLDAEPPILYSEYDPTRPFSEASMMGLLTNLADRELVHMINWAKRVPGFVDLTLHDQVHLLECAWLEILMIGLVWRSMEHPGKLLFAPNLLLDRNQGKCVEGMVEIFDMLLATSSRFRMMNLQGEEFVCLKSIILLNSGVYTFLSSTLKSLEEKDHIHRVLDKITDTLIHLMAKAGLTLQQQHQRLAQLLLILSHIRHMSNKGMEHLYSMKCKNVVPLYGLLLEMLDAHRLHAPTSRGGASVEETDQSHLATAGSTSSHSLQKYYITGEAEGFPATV

What was measured:
Assay in all cases: competitive radiometric binding, tritiated E2
WT-ER (ERα) [1] = biological target: WT-ER (ERα) (Homo sapiens, UniProt P03372, Y537S)
WT-ER (ERα) [2] = biological target: WT-ER (ERα) (Homo sapiens, UniProt P03372)
WT-ER (ERα) [3] = biological target: WT-ER (ERα) (Homo sapiens, UniProt P03372, D538G)

C[C@@H]1Cc2c([nH]c3ccccc23)[C@@H](c2c(F)cc(/C=C/C(=O)O)cc2F)N1CC(C)(C)F [AZD 9496]
Ki (WT-ER (ERα) [1]): 5.2 ± 1.16 nM
Ki (WT-ER (ERα) [2]): 0.19 ± 0.05 nM
Ki (WT-ER (ERα) [3]): 7.52 ± 1.9 nM
